Data reported in US11179341B2, “Self-righting articles” (priority 2017, dated 2021).

Settings: micropost tips 40% G6PD and 60% PEO 200 k, versus uncompressed powder
Procedure: To perform the activity assay on G6PD, an activity assay kit (Sigma Aldrich) was used which measures the amount of oxidized glucose-6-phosphate. […] Duplicate assays were performed on the dissolved solution.

## glucose-6-phosphate dehydrogenase
  glucose-6-phosphate dehydrogenase activity after the manufacturing process: maintain their activity
